In PubChem BioAssay AID746 (The Scripps Research Institute Molecular Screening Center, 2007) one finds inhibition data, which are given here for 19 compounds.

Protein sequences, listed by entry. Tags and fused reporters are not part of them. Lines headed by an entry give the natural chain unless they say otherwise; changes in a name come on top.
UniProt P53779: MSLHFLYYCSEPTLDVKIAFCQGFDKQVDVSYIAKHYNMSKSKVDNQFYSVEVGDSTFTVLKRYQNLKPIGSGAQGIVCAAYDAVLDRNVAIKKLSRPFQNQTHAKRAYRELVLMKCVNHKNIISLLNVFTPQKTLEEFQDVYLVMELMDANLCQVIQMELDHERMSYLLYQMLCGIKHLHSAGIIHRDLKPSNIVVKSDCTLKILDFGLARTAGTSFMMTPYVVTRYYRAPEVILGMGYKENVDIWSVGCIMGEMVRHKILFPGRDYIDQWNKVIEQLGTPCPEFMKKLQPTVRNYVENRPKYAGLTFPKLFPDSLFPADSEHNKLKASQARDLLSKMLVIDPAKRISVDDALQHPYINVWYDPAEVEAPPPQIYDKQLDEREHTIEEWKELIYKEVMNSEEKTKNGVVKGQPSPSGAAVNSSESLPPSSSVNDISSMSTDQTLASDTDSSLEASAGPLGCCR

This is a selection; strong and weak results do not stand in their true shares. The source made the active and inactive calls. Cut-off read from the data, not from the text of the source: active = inhibition above about 17%; inactive = the rest.

The experiment addresses Mitogen-activated protein kinase 10 (Homo sapiens) (UniProt P53779). Kind of experiment: JNK3 kinase activity inhibitors, primary screen, biochemical, human, purified enzyme (AID 746).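 Note: 0% = DMSO and 100% = reference inhibitor.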 To be noted: HTS, at 8 µM, hits give high values.
For the compound `Cc1cccc(OCC(=O)OC2CN3CCC2CC3)c1` (centres undefined), the inhibition was inactive: -2.83%.
As for `CCOP1(=S)c2c(C)nn(CCC#N)c2N=C(c2ccc(F)cc2)N1C` (centres undefined), the inhibition was inactive: -4.12%.
On to `CCOP1(=S)c2c(C)nn(CCC#N)c2N=C(c2ccccc2F)N1C` (centres undefined), for which the inhibition was inactive: -5.81%.
Take `O=P(Nc1nccs1)(c1ccccc1)c1nc2ccccc2s1` (centres undefined): the inhibition was inactive: 2.23%.
Consider `O=P1(Nc2ncccn2)COc2ccccc2OC1`, for which the inhibition is inactive: -7.25%.
In the case of `O=P1(Nc2ccc(Br)cn2)COc2ccccc2OC1` it was inactive: 1.9%; in that of `Cc1ccc(OCC(=O)OC2CN3CCC2CC3)cc1` (centres undefined), inactive: -5.46%.
For the compound `Cc1nn(-c2ccccc2)c2c1P(=O)(N1CCOCC1)N(C)C(c1ccccc1)=N2` (centres undefined), the inhibition is inactive: 3.91%.
For the compound `O=P1(Nc2ccccn2)COc2ccccc2OC1`, the inhibition was inactive: 3.93%.
`Clc1n[nH]nc1-c1nn[nH][15n]1`: the inhibition was inactive: -7.18%.
In the case of `COP1(=S)c2c(C)nn(CCC#N)c2N=C(c2ccc(F)cc2)N1C` (centres undefined), the inhibition is inactive: -1.05%.
With `O=C(COc1ccccc1)OC1CN2CCC1CC2` (centres undefined), the inhibition was inactive: -4.44%.
As for `O=C(OC1CN2CCC1CC2)C12CC3CC(CC(C3)C1)C2` (centres undefined), the inhibition is inactive: -4.33%.
Turning to `Cc1c2non([O-])c-2c(C)[n+](=O)[n+]1[O-]`, the inhibition was inactive: 2.28%.
In the case of `CCc1nc2c(n1)c1c(non1O)c1c2no[n+]1[O-]` it was inactive: -2.71%; in that of `O=P(Nc1nccs1)(c1ccccc1)c1ccccc1`, inactive: 5.75%.
As to `c1nnnn1CCn1cnnn1`, the inhibition was inactive: 3.73%.
As for `O=C(OC1CN2CCC1CC2)c1cccc(Cl)c1` (centres undefined), the inhibition was inactive: -4.93%.
Consider `O=P1(Nc2nc3ccc(Cl)cc3s2)COc2ccccc2O1` (centres undefined), for which the inhibition was inactive: 9.71%.

As usually defined, the inhibition is the drop in the measured response relative to a control, in per cent.
